# UUG fidelity – modulators of start codon recognition fidelity in yeast; AID 602363; activity score, % at 18.7 µM; S. cerevisiae UUG-firefly luciferase reporter, luminescence/redox ratio; actives 0.13% (n = 350,000);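 active = replicate mean at a twofold rise or more, about +100% in these data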;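 note: firefly luciferase made from a UUG start codon reports start codon fidelity; reporter light over untreated wells divided by growth signal over untreated wells; some hits fall short of that in this replicate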
# PGC1a acetyl inh – PGC1a acetylation modulation, inhibitor mode; inhibition, % at 15.6 µM; 350,000 tested, 0.17% active; AID 651687; U2OS PGC1a acetylation, AlphaScreen anti-acetyl-lysine; with virally co-expressed GCN5 acetyltransferase;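 active = every replicate shows inhibition of at least 40%; inconclusive = mean inhibition at least 40% but some replicate below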
# C2C12 statin – protects C2C12 myotubes from simvastatin toxicity; rescue of ATP level, % at 7.49 µM; ATP luminescence, 48 h; scaled: DMSO 0, geranylgeraniol control 100; 330,000 tested, 0.78% active;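 active = mean ATP rescue above about 67%, or every replicate alone reaching that limit, limit read from the data, passing the limit was not always enough; inconclusive = no clear call, values can overlap the other calls; inactive = mean under the limit and some replicate under it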;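 also: myotubes were challenged with 10 µM simvastatin during compound exposure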
# esBAF inh – SWI/SNF esBAF complex inhibition; reporter increase, % at 12.5 µM; AID 602393; 350,000 tested, 2% active; mouse ES cells, Bmi1-luciferase knock-in reporter, 24 h; 100% = twice the neutral-well signal; in the data active = activation above about 40%; inconclusive = no clear call, values can overlap the other calls;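 also: a rise in the Bmi1 reporter signal indicates esBAF inhibition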
# PglD inh – PglD (C. jejuni) enzyme inhibition; purified PglD enzyme, DTNB colorimetric CoA detection; inhibition, % at 12.5 µM; 360,000 tested, 0.098% active; in the data active = inhibition above about 16%, passing the limit was not always enough; inconclusive = no clear call, values can overlap the other calls
# E-sel inducer – induces E-selectin expression in human endothelial cells. AID 686992. activation, % at 7.58 µM. 260,000 tested, 0.37% active. HUVEC E-selectin immunofluorescence imaging; normalized: neutral wells 0, TNF-alpha wells 100;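 active = mean E-selectin-positive cell signal at least 10% of the positive control, reached in at least 60% of replicates, without over 20% cell loss; inconclusive = no rule given, readout overlaps actives, possibly toxicity-flagged; inactive = the rest, including those meeting only one limit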
#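 Read-out: % PE-positive cells | Test system: HUVEC | Doses: One compound dose added by pin transfer | Buffer or medium: EGM-2 over gelatin coat | Signal: Immunofluorescence imaging | Benchmarks: TNF-alpha, DMSO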
# Numbers stand for hits; . = inactive; ? = inconclusive; / = not tested or not shown. Only some compounds are listed: those with a hit (about 2.8% of all), similar ones and a draw of the others.
SMILES,UUG fidelity,PGC1a acetyl inh,C2C12 statin,esBAF inh,PglD inh,E-sel inducer
C[C@@H]1CN([C@H](C)CO)C(=O)Cc2cc(NC(=O)CCC(F)(F)F)ccc2O[C@H]1CN(C)Cc1ccc(Oc2ccccc2)cc1,.,.,102,.,.,.
C[C@@H]1CN([C@H](C)CO)C(=O)Cc2cc(NC(=O)CCC(F)(F)F)ccc2O[C@H]1CN(C)Cc1ccccc1,.,/,.,.,.,.
Cc1noc(C)c1NC(=O)Nc1ccc2c(c1)CC(=O)N([C@@H](C)CO)C[C@H](C)[C@@H](CN(C)C(=O)Nc1ccc(F)cc1)O2,.,.,.,.,.,73
Cc1noc(C)c1NC(=O)Nc1ccc2c(c1)CC(=O)N([C@@H](C)CO)C[C@H](C)[C@H](CN(C)Cc1ccc(Oc3ccccc3)cc1)O2,.,.,.,.,.,399
C[C@H](CO)N1C[C@H](C)[C@@H](CN(C)Cc2ccc(Oc3ccccc3)cc2)Oc2ccc(NC(=O)Nc3ccccc3)cc2CC1=O,.,.,79,.,.,.
CCCN(C)C[C@@H]1Oc2cc(C#CCC(C)C)ccc2S(=O)(=O)N([C@@H](C)CO)C[C@@H]1C,.,.,.,.,.,.
CSc1ccc(C(=O)/C=C/c2ccc(N)cc2)cc1,/,/,.,66,/,.
COc1ccc(/C=C/C(=O)c2c(O)cc(C)oc2=O)c(OC)c1,.,.,/,64,.,/
CSc1ccc(/C=C/C(=O)c2c(O)cc(C)oc2=O)cc1,.,.,.,54,.,/
C[C@@H]1CN([C@H](C)CO)C(=O)c2cc(-c3ccccc3)cnc2O[C@H]1CN(C)C(=O)c1ccccc1F,.,.,.,.,.,.
Cn1c2ccccc2c2cc(/C=N/NC(=O)c3cc(O)cc(O)c3)ccc21,.,/,.,.,.,74
COc1ccccc1NC(=O)CSc1nnc(-c2ccc(C)cc2)o1,.,.,.,.,.,.
Cc1cccc(NC(=O)CSc2nnc(-c3ccccc3C)o2)c1,.,.,.,44,.,/
COc1cccc(NC(=O)CSc2nnc(-c3ccc(C)cc3)o2)c1,.,/,.,60,.,.
CCCOc1ccc(/C=C/C(=O)O)cc1OC,.,62,.,.,.,/
Cc1ccc(S(=O)(=O)Nc2cc(-c3ccccc3)nn2C)cc1Cl,.,.,/,/,.,53
Cc1ccc(S(=O)(=O)Nc2cc(-c3ccccc3)nn2C)cc1,.,.,/,/,.,.
Cc1ccccc1CCN1CCCC(CN(C)C(=O)c2ccc3ncccc3c2)C1 (stereo not drawn),.,.,.,.,.,68
COc1ccc(CCN2CCCC(CN(C)C(=O)c3ccoc3)C2)cc1 (stereo not drawn),.,.,.,62,.,.
CO[C@H]1CN(C)C(=O)c2ccc(NC(C)=O)cc2OC[C@@H](C)N(C(=O)c2ccccc2F)C[C@H]1C,/,.,.,.,.,.
COc1cccc(-c2nnc(N(C)C(=O)C3CCOC3)s2)c1 (stereo not drawn),.,.,97,.,.,/
Cc1nnc(N(C)C(=O)c2cccnc2)s1,.,.,87,.,.,/
COc1cccc(C(=O)N(C)c2nnc(-c3ccncc3)s2)c1,/,.,82,.,/,/
CN(C(=O)c1cccnc1)c1nnc(-c2cccnc2)s1,.,.,.,.,.,.
CN(C(=O)c1cccc(C#N)c1)c1nnc(-c2ccncc2)s1,.,.,/,/,.,/
SMILES,UUG fidelity,PGC1a acetyl inh,C2C12 statin,esBAF inh,PglD inh,E-sel inducer
Cc1cc(C(=O)Nc2cccc3c2O[C@H](CN(C)S(=O)(=O)c2ccc(Cl)cc2)[C@H](C)CN([C@@H](C)CO)C3=O)n(C)n1,.,.,.,.,.,.
O=C(CCN1CCCCC1)NCC[C@H]1CC[C@@H](NC(=O)C2CCCCC2)[C@H](CO)O1,/,.,/,/,/,.
C[C@@H]1CN([C@@H](C)CO)C(=O)Cc2cc(NC(=O)Cc3ccccc3)ccc2O[C@H]1CN(C)C(=O)Nc1cccc2ccccc12,.,.,.,.,.,338
COc1ccc(NC(=O)N(C)C[C@@H]2Oc3ccc(NC(=O)Cc4ccccc4)cc3CC(=O)N([C@H](C)CO)C[C@H]2C)cc1,.,.,.,.,.,336
COc1ccc(NC(=O)N(C)C[C@@H]2Oc3ccc(NC(=O)Cc4ccccc4)cc3CC(=O)N([C@@H](C)CO)C[C@@H]2C)cc1,.,.,.,.,.,.
Cc1ccccc1-c1cnc2c(c1)C(=O)N([C@H](C)CO)C[C@@H](C)[C@H](CN(C)CC1CCOCC1)O2,.,.,.,.,.,/
O=C(NC1CCCC1)C(c1ccsc1)N(Cc1ccccc1)C(=O)Cc1cccs1 (stereo not drawn),.,.,.,.,.,/
COc1cccc(N(C(=O)Cc2cccs2)C(C(=O)NC2CCCC2)c2ccncc2)c1 (stereo not drawn),.,.,.,52,.,/
O=C(NC1CCCC1)C(c1ccsc1)N(Cc1ccco1)C(=O)Cc1cccs1 (stereo not drawn),.,.,118,.,.,/
O=C(NCC1CCCO1)C(c1cccnc1)N(C(=O)Cc1cccs1)c1ccccc1 (stereo not drawn),.,.,.,69,.,/
CCCN1C[C@@H](C)[C@@H](OC)CN(C)C(=O)c2cc(NC(=O)c3ccc(F)cc3)ccc2OC[C@@H]1C,.,.,.,.,.,.
CN(C)C(=O)c1ccc(-c2ccc([C@H]3[C@@H](CO)N4C(=O)CN(C(=O)C5CCCC5)C[C@H]34)cc2)cc1,/,.,/,/,/,.
Cc1ccc(Cc2c(-c3ccc(Br)cc3)nc3cc(C)ccn23)cc1,.,/,.,?,.,.
Cc1ccc(Cc2c(-c3ccc(F)cc3)nc3cc(C)ccn23)cc1,.,/,.,44,.,.
COCC(=O)N1CC2(CN[C@H](CO)c3c2c2ccc(OC)cc2n3C)C1,/,.,/,/,/,.
Cn1cccc1C(=O)OCc1cc(-c2ccco2)on1,.,.,.,83,.,.
O=C(C[C@@H]1C[C@@H]2c3cc(NC(=O)NC4CCCCC4)ccc3O[C@@H]2[C@@H](CO)O1)NCCc1ccccc1,/,.,/,/,/,.
C[C@H]1CN([C@@H](C)CO)C(=O)Cc2cc(NC(=O)Cn3cnnn3)ccc2O[C@@H]1CN(C)Cc1ccncc1,.,.,.,.,.,.
C[C@@H]1CN([C@H](C)CO)C(=O)c2cc(-c3cccnc3)cnc2O[C@H]1CN(C)C(=O)NC1CCCC1,.,.,.,.,.,.
O=C(c1ccccc1)c1ccc2cc(O)ccc2c1,/,/,.,55,/,/
O=C(c1ccccc1)c1cccc(C(=O)c2ccccc2)c1,.,.,.,.,.,/
Cc1nn(C)cc1NC(=O)C[C@H]1CC[C@H]2[C@@H](COc3ccc(NC(=O)NC(C)C)cc3C(=O)N2C)O1,.,.,.,.,.,.
O=C(Nc1ccc(S(=O)(=O)N2CCOCC2)cc1)c1ccc2c(c1)OCO2,/,.,.,.,/,.
O=S(=O)(c1ccc(NC(=S)Nc2ccc3c(c2)OCO3)cc1)N1CCOCC1,.,.,.,45,.,/

# Source: PubChem
